Consider 37 molecules from patent US11186582B2, “Substituted [1,2,4]triazolo[1,5-a]pyrimidin-7-yl compounds as PDE2 inhibitors” (DART NEUROSCIENCE (CAYMAN) LTD., priority 2014, dated 2021).

Sequences of proteins named here, by UniProt entry; tags and fusion partners are left off. Residues count along the entry.
UniProt O00408, 2-941: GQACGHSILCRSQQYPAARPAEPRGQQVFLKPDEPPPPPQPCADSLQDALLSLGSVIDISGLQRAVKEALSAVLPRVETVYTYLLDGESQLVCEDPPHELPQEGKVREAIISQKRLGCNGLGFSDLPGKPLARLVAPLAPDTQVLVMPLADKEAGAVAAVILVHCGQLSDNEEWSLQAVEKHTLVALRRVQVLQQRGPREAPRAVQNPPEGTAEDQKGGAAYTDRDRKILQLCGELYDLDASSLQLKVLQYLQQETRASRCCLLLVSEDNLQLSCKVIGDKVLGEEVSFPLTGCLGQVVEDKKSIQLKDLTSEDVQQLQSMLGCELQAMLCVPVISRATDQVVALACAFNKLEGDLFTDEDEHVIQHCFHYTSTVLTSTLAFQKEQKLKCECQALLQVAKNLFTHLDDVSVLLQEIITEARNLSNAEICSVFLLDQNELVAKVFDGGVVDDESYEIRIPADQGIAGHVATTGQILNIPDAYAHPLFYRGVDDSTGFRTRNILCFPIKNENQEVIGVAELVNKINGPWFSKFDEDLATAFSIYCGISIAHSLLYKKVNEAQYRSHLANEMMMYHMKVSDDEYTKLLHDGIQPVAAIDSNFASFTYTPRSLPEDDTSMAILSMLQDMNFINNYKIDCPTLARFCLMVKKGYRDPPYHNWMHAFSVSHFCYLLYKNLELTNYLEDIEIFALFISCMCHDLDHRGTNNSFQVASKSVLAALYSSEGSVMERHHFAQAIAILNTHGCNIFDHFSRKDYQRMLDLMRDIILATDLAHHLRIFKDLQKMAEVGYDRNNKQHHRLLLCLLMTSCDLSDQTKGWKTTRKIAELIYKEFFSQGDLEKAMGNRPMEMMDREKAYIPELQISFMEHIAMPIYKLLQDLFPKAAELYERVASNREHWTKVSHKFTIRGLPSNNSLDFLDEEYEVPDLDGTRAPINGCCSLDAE

Where only a bound is given, the exact number is not on record here.

In general, IC50 refers to the point on the concentration scale where inhibition reaches its midpoint. Lower therefore signals greater potency in that assay.

The target of the first assay is FLAG-tagged PDE2A1 (amino acids 2-941) (Homo sapiens (Human), UniProt O00408). Put plainly: IMAP TR-FRET PDE2A phosphodiesterase enzymatic assay.
Conditions: not given
Background: Time-resolved FRET reads energy transfer from a long-lived donor to a nearby acceptor.
Consider `Cc1cc(C2CCCN(Cc3cnc(C)s3)C2)n2ncnc2n1` (stereo not shown) [Example 194, 1-[(2-Methyl-1,3-thiazol-5-yl)methyl]-3-{5-methyl-[1,2,4]triazolo[1,5-a]pyrimidin-7-yl}piperidine], for which the IC50 is 1 to 10 µM.

`Cc1cc(C2CCCN(Cc3cnc(N4CCOCC4)s3)C2)n2ncnc2n1` (stereo not shown) [Example 198, 4-{5-[(3-{5-Methyl-[1,2,4]triazolo[1,5-a]pyrimidin-7-yl}piperidin-1-yl)methyl]-1,3-thiazol-2-yl}morpholine] returned an IC50 of 1 to 10 µM.

Consider `Cc1cc(C2CCCN(Cc3csc(Br)n3)C2)n2ncnc2n1` (stereo not shown) [Example 199, 1-[(2-Bromo-1,3-thiazol-4-yl)methyl]-3-{5-methyl-[1,2,4]triazolo[1,5-a]pyrimidin-7-yl}piperidine], for which the IC50 lay within 1 to 10 µM.

Regarding `Cc1cc(C2CCCN(Cc3cnc(N(C)C)s3)C2)n2ncnc2n1` (stereo not shown) [Example 201, N,N-Dimethyl-5-[(3-{5-methyl-[1,2,4]triazolo[1,5-a]pyrimidin-7-yl}piperidin-1-yl)methyl]-1,3-thiazol-2-amine], the concentration for half-maximal inhibition (IC50) lay in the range of 0.1 to 1 µM.

Take `Cc1cc(C2CCCN(Cc3cnc(N4CCCC4)s3)C2)n2ncnc2n1` (stereo not shown) [Example 202, 3-{5-Methyl-[1,2,4]triazolo[1,5-a]pyrimidin-7-yl}-1-{[2-(pyrrolidin-1-yl)-1,3-thiazol-5-yl]methyl}piperidine]: the IC50 lay in the range of 0.1 to 1 µM.

Regarding `Cc1cc(C2CCCN(Cc3cc(Br)no3)C2)n2ncnc2n1` (stereo not shown) [Example 203, 1-[(3-Bromo-1,2-oxazol-5-yl)methyl]-3-{5-methyl-[1,2,4]triazolo[1,5-a]pyrimidin-7-yl}piperidine], the IC50 is 1 to 10 µM.

Molecule `Cc1cc(C2CCCN(Cc3cc(F)c(F)c(Br)c3)C2)n2ncnc2n1` (stereo not shown) [Example 204, 1-[(3-Bromo-4,5-difluorophenyl)methyl]-3-{5-methyl-[1,2,4]triazolo[1,5-a]pyrimidin-7-yl}piperidine] displayed an IC50 of 1 to 10 µM.

With `Cc1cc(C2CCCN(Cc3nc(C)c(Br)s3)C2)n2ncnc2n1` (stereo not shown) [Example 205, 1-[(5-Bromo-4-methyl-1,3-thiazol-2-yl)methyl]-3-{5-methyl-[1,2,4]triazolo[1,5-a]pyrimidin-7-yl}piperidine], the IC50 lay within 0.1 to 1 µM.

As for `Cc1cc(C2CCCN(Cc3sc(N(C)C)nc3C)C2)n2ncnc2n1` (stereo not shown) [Example 206, N,N,4-Trimethyl-5-[(3-{5-methyl-[1,2,4]triazolo[1,5-a]pyrimidin-7-yl}piperidin-1-yl)methyl]-1,3-thiazol-2-amine], the IC50 was in the range of 1 to 10 µM.

For the molecule `Cc1cc(C2CN(C(=O)c3ccc(F)cc3)CCO2)n2ncnc2n1` (stereo not shown) [Example 212, 4-[(4-Fluorophenyl)carbonyl]-2-{5-methyl-[1,2,4]triazolo[1,5-a]pyrimidin-7-yl}morpholine], the IC50 lay in the range of 1 to 10 µM.

Regarding `Cc1cc(C2CN(C(=O)c3ccccc3)CCO2)n2ncnc2n1` (stereo not shown) [Example 213, 4-Benzoyl-2-{5-methyl-[1,2,4]triazolo[1,5-a]pyrimidin-7-yl}morpholine], the IC50 fell in the range of 1 to 10 µM.

Molecule `Cc1cc(C2CN(C(=O)c3ccc(F)c(Cl)c3)CCO2)n2ncnc2n1` (stereo not shown) [Example 214, 4-[(3-Chloro-4-fluorophenyl)carbonyl]-2-{5-methyl-[1,2,4]triazolo[1,5-a]pyrimidin-7-yl}morpholine] came in with an IC50 of 0.1 to 1 µM.

Take `Cc1cc(C2CN(C(=O)c3cccc(F)c3)CCO2)n2ncnc2n1` (stereo not shown) [Example 215, 4-[(3-Fluorophenyl)carbonyl]-2-{5-methyl-[1,2,4]triazolo[1,5-a]pyrimidin-7-yl}morpholine]: the IC50 is 1 to 10 µM.

`Cc1cc(C2CN(C(=O)c3ccc(F)c(C(F)(F)F)c3)CCO2)n2ncnc2n1` (stereo not shown) [Example 216, 4-{[4-Fluoro-3-(trifluoromethyl)phenyl]carbonyl}-2-{5-methyl-[1,2,4]triazolo[1,5-a]pyrimidin-7-yl}morpholine] returned an IC50 of 1 to 10 µM.

The molecule `COc1ccc(C(=O)N2CCOC(c3cc(C)nc4ncnn34)C2)cc1` (stereo not shown) [Example 217, 4-[(4-Methoxyphenyl)carbonyl]-2-{5-methyl-[1,2,4]triazolo[1,5-a]pyrimidin-7-yl}morpholine] registered an IC50 of 0.1 to 1 µM.

In the case of `Cc1cc(C2CN(C(=O)c3ccc(-c4ccccc4)cc3)CCO2)n2ncnc2n1` (stereo not shown) [Example 218, 2-{5-Methyl-[1,2,4]triazolo[1,5-a]pyrimidin-7-yl}-4-[(4-phenylphenyl)carbonyl]morpholine], the IC50 was 0.1 to 1 µM.

`Cc1cc(C2CN(C(=O)c3ccc(Cl)cc3)CCO2)n2ncnc2n1` (stereo not shown) [Example 219, 4-[(4-Chlorophenyl)carbonyl]-2-{5-methyl-[1,2,4]triazolo[1,5-a]pyrimidin-7-yl}morpholine] displayed an IC50 of 0.1 to 1 µM.

In turn, `Cc1cc(C2CN(C(=O)c3cccc(Cl)c3)CCO2)n2ncnc2n1` (stereo not shown) [Example 220, 4-[(3-Chlorophenyl)carbonyl]-2-{5-methyl-[1,2,4]triazolo[1,5-a]pyrimidin-7-yl}morpholine] displayed an IC50 of 0.1 to 1 µM.

In the case of `Cc1cc(C2CN(C(=O)c3cccc(OC(F)(F)F)c3)CCO2)n2ncnc2n1` (stereo not shown) [Example 221, 2-{5-Methyl-[1,2,4]triazolo[1,5-a]pyrimidin-7-yl}-4-{[3-(trifluoromethoxy)phenyl]carbonyl}morpholine], the IC50 is 1 to 10 µM.

Regarding `Cc1cc(C2CN(C(=O)c3cc(Cl)cc(Cl)c3)CCO2)n2ncnc2n1` (stereo not shown) [Example 222, 4-[(3,5-Dichlorophenyl)carbonyl]-2-{5-methyl-[1,2,4]triazolo[1,5-a]pyrimidin-7-yl}morpholine], the IC50 was 0.1 to 1 µM.

As for `Cc1cc(C2CN(C(=O)c3ccc(C#N)cc3)CCO2)n2ncnc2n1` (stereo not shown) [Example 223, 4-[(2-{5-Methyl-[1,2,4]triazolo[1,5-a]pyrimidin-7-yl}morpholin-4-yl)carbonyl]benzonitrile], the IC50 was > 10 µM.

Consider `Cc1cc(C2CN(C(=O)c3ccc(F)c(F)c3)CCO2)n2ncnc2n1` (stereo not shown) [Example 224, 4-[(3,4-Difluorophenyl)carbonyl]-2-{5-methyl-[1,2,4]triazolo[1,5-a]pyrimidin-7-yl}morpholine], for which the IC50 is > 10 µM.

In the case of `Cc1cc(C2CN(C(=O)c3cccc(Br)c3)CCO2)n2ncnc2n1` (stereo not shown) [Example 226, 4-[(3-Bromophenyl)carbonyl]-2-{5-methyl-[1,2,4]triazolo[1,5-a]pyrimidin-7-yl}morpholine], the IC50 is 0.1 to 1 µM.

For the molecule `Cc1cc(C2CN(C(=O)c3cccc(C#N)c3)CCO2)n2ncnc2n1` (stereo not shown) [Example 227, 3-[(2-{5-Methyl-[1,2,4]triazolo[1,5-a]pyrimidin-7-yl}morpholin-4-yl)carbonyl]benzonitrile], the IC50 is 1 to 10 µM.

`Cc1cc(C2CN(C(=O)c3cccc(C(F)(F)F)c3)CCO2)n2ncnc2n1` (stereo not shown) [Example 228, 2-{5-Methyl-[1,2,4]triazolo[1,5-a]pyrimidin-7-yl}-4-{[3-(trifluoromethyl)phenyl]carbonyl}morpholine] came in with an IC50 of 0.1 to 1 µM.

With `Cc1cc(C2CN(C(=O)c3ccc(C(F)(F)F)cc3)CCO2)n2ncnc2n1` (stereo not shown) [Example 229, 2-{5-Methyl-[1,2,4]triazolo[1,5-a]pyrimidin-7-yl}-4-{[4-(trifluoromethyl)phenyl]carbonyl}morpholine], the IC50 lay within 1 to 10 µM.

For the molecule `CCOc1cccc(C(=O)N2CCOC(c3cc(C)nc4ncnn34)C2)c1` (stereo not shown) [Example 230, 4-[(3-Ethoxyphenyl)carbonyl]-2-{5-methyl-[1,2,4]triazolo[1,5-a]pyrimidin-7-yl}morpholine], the concentration for half-maximal inhibition (IC50) lay in the range of 0.1 to 1 µM.

With `Cc1cc(C2CN(C(=O)c3ccc(F)c(Br)c3)CCO2)n2ncnc2n1` (stereo not shown) [Example 231, 4-[(3-Bromo-4-fluorophenyl)carbonyl]-2-{5-methyl-[1,2,4]triazolo[1,5-a]pyrimidin-7-yl}morpholine], the IC50 lay in the range of 0.1 to 1 µM.

The assay is the same for the next values; noted with them: IMAP TR-FRET, 200 nM FAM-cAMP substrate, 11-point half-log dose-response.
For the molecule `Cc1cc(C2CCCN(Cc3cnc(-c4ccc(F)cc4)s3)C2)n2ncnc2n1` (stereo not shown) [Example 195, 1-{[2-(4-Fluorophenyl)-1,3-thiazol-5-yl]methyl}-3-{5-methyl-[1,2,4]triazolo[1,5-a]pyrimidin-7-yl}piperidine], the “PDE2 (pIC50)” value is >7.

Take `Cc1cc(C2CCCN(Cc3cnc(-c4cccc(F)c4)s3)C2)n2ncnc2n1` (stereo not shown) [Example 196, 1-{[2-(3-Fluorophenyl)-1,3-thiazol-5-yl]methyl}-3-{5-methyl-[1,2,4]triazolo[1,5-a]pyrimidin-7-yl}piperidine]: the “PDE2 (pIC50)” value is reported as >7.

`COc1cccc(-c2ncc(CN3CCCC(c4cc(C)nc5ncnn45)C3)s2)c1` (stereo not shown) [Example 197, 1-{[2-(3-Methoxyphenyl)-1,3-thiazol-5-yl]methyl}-3-{5-methyl-[1,2,4]triazolo[1,5-a]pyrimidin-7-yl}piperidine]: the “PDE2 (pIC50)” value is >7.

On to `Cc1cc(C2CCCN(Cc3cnc(Br)s3)C2)n2ncnc2n1` (stereo not shown) [Example 200, 1-[(2-Bromo-1,3-thiazol-5-yl)methyl]-3-{5-methyl-[1,2,4]triazolo[1,5-a]pyrimidin-7-yl}piperidine], for which the “PDE2 (pIC50)” value is >7.

Take `Cc1cc(C2CCCN(C(=O)c3ccc4c(c3)CCO4)C2)n2ncnc2n1` (stereo not shown) [Example 207, 1-[(2,3-Dihydro-1-benzofuran-5-yl)carbonyl]-3-{5-methyl-[1,2,4]triazolo[1,5-a]pyrimidin-7-yl}piperidine]: the “PDE2 (pIC50)” value was >7.

With `Cc1cc(C2CCCN(C(=O)c3ccc4c(c3)CCCO4)C2)n2ncnc2n1` (stereo not shown) [Example 208, 1-[(3,4-Dihydro-2H-1-benzopyran-6-yl)carbonyl]-3-{5-methyl-[1,2,4]triazolo[1,5-a]pyrimidin-7-yl}piperidine], the “PDE2 (pIC50)” value is listed as >7.

Take `Cc1cc(C2CN(C(=O)c3cccc(I)c3)CCO2)n2ncnc2n1` (stereo not shown) [Example 209, 4-[(3-Iodophenyl)carbonyl]-2-{5-methyl-[1,2,4]triazolo[1,5-a]pyrimidin-7-yl}morpholine]: the “PDE2 (pIC50)” value is reported as >7.

Regarding `Cc1cc(C2CN(C(=O)c3ccc4ccccc4c3)CCO2)n2ncnc2n1` (stereo not shown) [Example 210, 2-{5-Methyl-[1,2,4]triazolo[1,5-a]pyrimidin-7-yl}-4-[(naphthalen-2-yl)carbonyl]morpholine], the “PDE2 (pIC50)” value was >7.

As to `Cc1cc(C2CN(C(=O)c3cccc(I)c3)CC(F)(F)C2)n2ncnc2n1` (stereo not shown) [Example 211, 3,3-Difluoro-1-[(3-iodophenyl)carbonyl]-5-{5-methyl-[1,2,4]triazolo[1,5-a]pyrimidin-7-yl}piperidine], the “PDE2 (pIC50)” value is reported as >7.
